The results in this text go back to patent publication US20250381168A1, “VLA4 INHIBITORS AND USES THEREOF” (Washington University, priority 2022, published 2025).

The chains behind the UniProt entries cited, without tags or fusion partners. Residues count along the entry.
UniProt P13612, 34-970: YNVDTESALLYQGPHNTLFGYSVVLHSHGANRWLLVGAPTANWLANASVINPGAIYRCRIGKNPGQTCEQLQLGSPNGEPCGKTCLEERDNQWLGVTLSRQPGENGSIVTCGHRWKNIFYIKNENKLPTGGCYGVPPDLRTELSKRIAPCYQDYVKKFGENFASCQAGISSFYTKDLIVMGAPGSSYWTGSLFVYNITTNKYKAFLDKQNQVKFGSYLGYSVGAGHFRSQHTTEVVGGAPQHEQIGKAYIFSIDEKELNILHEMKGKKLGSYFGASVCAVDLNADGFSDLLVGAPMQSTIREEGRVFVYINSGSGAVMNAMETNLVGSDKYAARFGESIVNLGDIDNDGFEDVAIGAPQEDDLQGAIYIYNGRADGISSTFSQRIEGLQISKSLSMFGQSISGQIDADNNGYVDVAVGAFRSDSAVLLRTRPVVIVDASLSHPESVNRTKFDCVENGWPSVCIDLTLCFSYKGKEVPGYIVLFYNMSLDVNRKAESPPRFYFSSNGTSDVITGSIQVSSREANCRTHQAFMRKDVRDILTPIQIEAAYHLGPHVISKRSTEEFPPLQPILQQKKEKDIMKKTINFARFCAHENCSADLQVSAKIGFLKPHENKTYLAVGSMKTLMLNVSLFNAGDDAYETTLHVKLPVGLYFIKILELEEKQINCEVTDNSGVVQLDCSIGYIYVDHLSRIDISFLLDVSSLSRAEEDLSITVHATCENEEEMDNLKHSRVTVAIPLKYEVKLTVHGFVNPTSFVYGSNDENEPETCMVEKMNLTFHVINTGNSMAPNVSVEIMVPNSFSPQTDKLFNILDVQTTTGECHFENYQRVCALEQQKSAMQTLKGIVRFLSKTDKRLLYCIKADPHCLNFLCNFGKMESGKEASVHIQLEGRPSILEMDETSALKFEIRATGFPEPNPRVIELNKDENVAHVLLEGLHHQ
UniProt P26010, 20-723: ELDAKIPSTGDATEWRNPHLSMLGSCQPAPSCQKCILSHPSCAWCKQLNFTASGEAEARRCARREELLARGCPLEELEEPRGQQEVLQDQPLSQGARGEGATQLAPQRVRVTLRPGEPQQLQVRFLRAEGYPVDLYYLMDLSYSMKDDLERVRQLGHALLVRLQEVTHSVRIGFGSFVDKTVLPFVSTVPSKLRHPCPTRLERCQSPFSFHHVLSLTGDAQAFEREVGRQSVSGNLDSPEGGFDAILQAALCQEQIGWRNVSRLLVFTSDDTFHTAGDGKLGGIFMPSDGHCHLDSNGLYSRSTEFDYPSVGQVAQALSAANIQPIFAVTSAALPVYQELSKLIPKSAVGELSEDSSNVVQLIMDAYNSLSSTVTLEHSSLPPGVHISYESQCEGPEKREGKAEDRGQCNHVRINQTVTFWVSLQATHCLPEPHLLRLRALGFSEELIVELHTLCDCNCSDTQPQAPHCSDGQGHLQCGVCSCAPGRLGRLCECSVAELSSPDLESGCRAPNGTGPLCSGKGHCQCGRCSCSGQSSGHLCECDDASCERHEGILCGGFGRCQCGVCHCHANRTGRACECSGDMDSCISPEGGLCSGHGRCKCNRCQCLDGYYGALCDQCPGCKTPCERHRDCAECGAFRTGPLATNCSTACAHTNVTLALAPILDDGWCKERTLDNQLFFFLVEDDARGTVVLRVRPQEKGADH

The assay concerns the target integrin a4b7 (Homo sapiens (Human), UniProt P13612+P26010). In words: a4b7 solid phase receptor assay (SPRA). The settings on record: recombinant human a4b7 binding to plate-coated human VCAM1 (TABLE 4). The method, then: The potency of compounds in blocking ligand binding to integrin a4b7 was determined by modification of previously described methods (Henderson et al, Nature Medicine, 2013). Briefly, purified human VCAM1 (R & D Systems) diluted to 5 μg/ml in TBS+ buffer (25 mM Tris pH 7.4, 137 mM NaCl, 2.7 mM KCl, 1 mM CaCl2), 1 mM MgCl2, 1 mM MnCl2) was added to wells of a 96-well transparent microtiter plate and incubated overnight at 4° C. Wells were washed 3 times with TBS+ and blocking buffer (TBS+ with 1% bovine serum albumin), the plate was incubated for 1 hr at 37° C., and then washed 3× with TBS+ buffer. Recombinant human a4b7 (R & D Systems) was diluted to 1 μg/ml in TBS+/0.1% bovine serum albumin. Test compounds were diluted into the integrin solution and added to the washed ligand-coated plate according to a standard template with each sample repeated in triplicate. After incubation for 2 hr at room temperature, the plate was washed 3× with 150 μl of TBS+ buffer. […] After incubation for 20 min at room temperature, plates were stopped with TMB stop solution (Sigma S5689) by colorimetric detection at 450 nm wavelength using a Tecan Safire II plate reader. Concentration-response curves were constructed by non-linear regression (best fit) analysis, and IC50 values were calculated for each compound. […]

Usually IC50 stands for the concentration at which inhibition is half-maximal.

Consider `CCOCc1cc(OC)c(-c2ccc(C[C@H](NC(=O)[C@@H]3CCCN3S(=O)(=O)c3cc(Cl)cc(Cl)c3)C(=O)O)cc2)c(OC)c1` [Example C6], for which the IC50 worked out at 3.9 nM.
